# Test system: p53A cells
# Assay: Apoptotic morphology of transfected cells by indirect immunofluorescence at the permissive temperature
# Format: cell-based, rat
# Details: 10 μg plasmid DNA, permissive temperature (FIG. 14)
# Description: Cell viability was measured by trypan blue staining. Cells were trypsinized, centrifuged, resuspended in PBS, and counted using a hemocytometer after diluting in trypan blue. Apoptotic morphology was assessed by scoring for cells that are positive by fluorescence microscopy and are rounded and non adherent. Cell morphology was also documented by photography at 100× magnification on a Nikon phase-contrast microscope and camera using Kodak film.
# Cells were fixed in cold methanol prior to incubation with primary antibodies. Subsequent to several washes in PBS, cells were incubated with rhodamine-conjugated goat anti-mouse antibody or fluorescein-conjugated goat anti-rabbit antibody. Cells were then washed, mounted and analyzed by fluorescence microscopy using a Nikon FXA epifluorescence microscope.
# The indicated amount of plasmid DNA was transfected by electroporation. […]
# In addition, we determined the percentage of cells with apoptotic morphology that were ectopically expressing wild-type p300 ectopically or the E1A-binding mutant of p300 following transient transfection with 24 μg of plasmid DNA. Apoptotic morphology was determined by counting cells that were rounded in shape and detaching from the dish. […]
substance,measurement,value
wild-type mdm2: Wild-type mdm2 expressed from pCMVβ-X2 (pCOC-X2),percentage of apoptotic cells among expressing cells,10%

# Source: patent US6890716B1, “Recombinant cell line and screening method for identifying agents which regulate apoptosis and tumor suppression” (Howard Hughes Medical Institute, priority 1998, dated 2005)
